Test results taken from US11542497B2, “Method for evaluating multiple different genes of interest” (THE UNIVERSITY OF TOKYO, priority 2017, dated 2023).

System: Ba/F3 cells expressing active EGFR mutants (11 kinds) or other oncoproteins (5 kinds)
Assay: MANO method, drug sensitivity of 16 pooled Ba/F3 cell clones (Example 1, FIG. 3)
Format: cell-based
Description: HEK (Human Embryonic kidney) 293 cells and mouse 3T3 fibroblasts were obtained from the American Type Culture Collection and maintained in Dulbecco's modified Eagle medium-F-12 (DMEM-F12) supplemented with 10% FBS (both from Thermo Fisher Scientific, Waltham, Mass.). Ba/F3 cells were cultured in RPMI 1640 medium (Thermo Fisher Scientific) supplemented with 10% FBS and mouse IL-3 (20 U/mL; Sigma, St. Louis, Mo.).
First, 60-bp nucleotides (SEQ ID NO: 9) were inserted into the BamHI restriction enzyme site of pcx4-bleo vector (https://www.addgene.org/vector-database/2309/). […]
The recombinant plasmids prepared as described above were introduced together with packaging plasmids (Takara Bio, Shiga, Japan) into HEK293 cells to obtain recombinant retroviral particles. […] Cell transformation was assessed through either phase-contrast microscopy or staining with Giemsa solution. […]
The amplified PCR products were purified using AMPure beads (Beckman Coulter, Brea, Calif.). […] The library quality was assessed using a Qubit 2.0 fluorometer (Thermo Fisher Scientific) and the Agilent 2200 Tape Station system. The library was sequenced on an Illumina MiSeq (at 300 cycles) using Reagent Kit V2 to give 150-bp paired-end reads. These sequence reads included the following bar code-containing sequences: 5′-[…]-3′ (SEQ ID NO: 12) (where N denotes any nucleotide) and their complementary sequences. […]

COc1cc2ncnc(Nc3ccc(F)c(Cl)c3)c2cc1OCCCN1CCOCC1 [gefitinib]
cell death of cells having TKI-sensitive EGFR mutants: dose-dependent cell death
drug sensitivity of EGFR(T790M)-expressing Ba/F3 cell: resistant
